Target: IKK epsilon/TBK1 (Homo sapiens, UniProt Q14164+Q9UHD2)
Test: Inhibition of IKKepsilon/TBK1 in human MDB-MB-231 cells transduced with lentiviral vector expressing human IRF3 assessed as decrease in poly(I:C)-stimulated IRF3 phosphorylation at S385/386 residues preincubated for 1 hr followed by poly(I:C) addition and measured after 1 hr
Assay type: cell-based

By UniProt entry, the sequences of proteins in these tests, tags left out. Where a name states a change or a piece, a line headed by the entry shows the natural chain unless it says otherwise.
UniProt Q14164: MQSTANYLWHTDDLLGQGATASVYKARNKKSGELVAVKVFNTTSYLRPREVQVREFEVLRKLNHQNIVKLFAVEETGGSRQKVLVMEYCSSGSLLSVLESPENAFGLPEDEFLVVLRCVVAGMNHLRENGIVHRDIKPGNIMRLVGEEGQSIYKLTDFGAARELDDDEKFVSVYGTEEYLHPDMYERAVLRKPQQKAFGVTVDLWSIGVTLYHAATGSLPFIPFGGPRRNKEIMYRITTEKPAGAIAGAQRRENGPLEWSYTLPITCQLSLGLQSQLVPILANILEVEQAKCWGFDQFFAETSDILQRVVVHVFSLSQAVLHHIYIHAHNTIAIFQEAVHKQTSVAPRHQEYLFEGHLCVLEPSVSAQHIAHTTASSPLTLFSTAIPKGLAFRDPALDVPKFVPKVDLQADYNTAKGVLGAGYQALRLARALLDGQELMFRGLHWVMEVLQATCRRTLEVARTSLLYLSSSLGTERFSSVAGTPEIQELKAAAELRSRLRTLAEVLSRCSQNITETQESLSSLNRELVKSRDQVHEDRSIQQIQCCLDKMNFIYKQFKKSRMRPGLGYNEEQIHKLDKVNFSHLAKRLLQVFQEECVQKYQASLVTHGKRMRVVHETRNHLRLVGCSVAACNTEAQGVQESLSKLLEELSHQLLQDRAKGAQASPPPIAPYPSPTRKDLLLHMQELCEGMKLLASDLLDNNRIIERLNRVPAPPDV
UniProt Q9UHD2: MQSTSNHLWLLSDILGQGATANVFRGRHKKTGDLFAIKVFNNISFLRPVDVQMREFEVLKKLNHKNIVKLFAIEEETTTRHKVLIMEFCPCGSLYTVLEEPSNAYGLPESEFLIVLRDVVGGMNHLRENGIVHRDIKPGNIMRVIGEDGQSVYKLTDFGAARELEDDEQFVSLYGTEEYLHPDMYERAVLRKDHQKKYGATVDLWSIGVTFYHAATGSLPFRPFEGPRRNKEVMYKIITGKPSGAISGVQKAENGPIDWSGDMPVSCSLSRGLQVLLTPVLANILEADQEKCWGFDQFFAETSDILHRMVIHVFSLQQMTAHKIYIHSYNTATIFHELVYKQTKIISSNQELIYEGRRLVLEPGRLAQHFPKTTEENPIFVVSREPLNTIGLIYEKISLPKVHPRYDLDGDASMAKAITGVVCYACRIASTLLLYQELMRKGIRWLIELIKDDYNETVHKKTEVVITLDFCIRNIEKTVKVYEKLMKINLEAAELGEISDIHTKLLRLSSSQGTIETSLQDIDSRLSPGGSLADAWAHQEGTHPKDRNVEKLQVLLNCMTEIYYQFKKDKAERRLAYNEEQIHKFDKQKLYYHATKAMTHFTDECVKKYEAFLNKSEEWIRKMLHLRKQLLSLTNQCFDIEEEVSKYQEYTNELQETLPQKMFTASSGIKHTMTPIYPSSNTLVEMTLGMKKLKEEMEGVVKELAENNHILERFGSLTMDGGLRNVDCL

Question: How did the IC50 turn out when `Cc1cc(-c2ccc3nc(Nc4cc(CN5CCN(C(=O)CC(F)(F)F)CC5)ccn4)[nH]c3c2)ncn1` was run?
Answer: Its IC50 is 773 nM.

From ChEMBL document CHEMBL4376867 (J Med Chem, 2020)
